Laboratory results reported in patent publication US20230303570A1, “KINASE INHIBITORS AND USES THEREOF” (ABM Therapeutics Corporation, priority 2020, published 2023).

Amino acid sequences for entries named in this document (tags omitted).
UniProt Q92918, whole entry: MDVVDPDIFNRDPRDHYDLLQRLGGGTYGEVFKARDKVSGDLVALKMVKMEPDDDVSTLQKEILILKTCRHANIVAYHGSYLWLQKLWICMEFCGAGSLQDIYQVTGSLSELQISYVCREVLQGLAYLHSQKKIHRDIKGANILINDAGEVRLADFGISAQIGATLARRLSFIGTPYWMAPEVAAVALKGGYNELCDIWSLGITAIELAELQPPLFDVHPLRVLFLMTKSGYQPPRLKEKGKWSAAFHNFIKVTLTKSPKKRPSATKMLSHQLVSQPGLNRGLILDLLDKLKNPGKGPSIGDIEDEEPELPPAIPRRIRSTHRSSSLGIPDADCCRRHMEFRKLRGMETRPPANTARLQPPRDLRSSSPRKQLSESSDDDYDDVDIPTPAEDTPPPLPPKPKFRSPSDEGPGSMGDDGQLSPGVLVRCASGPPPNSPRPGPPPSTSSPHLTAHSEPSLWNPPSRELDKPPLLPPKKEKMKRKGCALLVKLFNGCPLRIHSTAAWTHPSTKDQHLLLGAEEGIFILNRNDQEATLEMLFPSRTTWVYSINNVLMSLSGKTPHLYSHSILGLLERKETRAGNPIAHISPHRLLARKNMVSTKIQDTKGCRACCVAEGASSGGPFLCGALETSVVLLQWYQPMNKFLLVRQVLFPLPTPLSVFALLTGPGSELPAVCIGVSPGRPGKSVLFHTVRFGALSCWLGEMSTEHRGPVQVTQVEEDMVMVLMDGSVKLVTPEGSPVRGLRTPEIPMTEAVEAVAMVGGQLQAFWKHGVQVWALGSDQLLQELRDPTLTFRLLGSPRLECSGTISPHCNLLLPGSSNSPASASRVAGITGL

Target: HPK1 (MAP4K1) (Homo sapiens, UniProt Q92918)
Test: HPK1 (MAP4K1) kinase Lantha screen assay
Conditions: read-out: HPK1 IC50

Cc1ccc(NC(=O)c2cc(C(F)(F)F)ccn2)cc1C1=Cc2cnc(-n3nccc3N)nc2N2CCN=C12
IC50: 0.1 to 10 µM
